Biological target: Mitogen-activated protein kinase 1 (Homo sapiens, UniProt P28482)

Amino acid sequences for entries named in this document (tags omitted).
UniProt P28482, whole entry: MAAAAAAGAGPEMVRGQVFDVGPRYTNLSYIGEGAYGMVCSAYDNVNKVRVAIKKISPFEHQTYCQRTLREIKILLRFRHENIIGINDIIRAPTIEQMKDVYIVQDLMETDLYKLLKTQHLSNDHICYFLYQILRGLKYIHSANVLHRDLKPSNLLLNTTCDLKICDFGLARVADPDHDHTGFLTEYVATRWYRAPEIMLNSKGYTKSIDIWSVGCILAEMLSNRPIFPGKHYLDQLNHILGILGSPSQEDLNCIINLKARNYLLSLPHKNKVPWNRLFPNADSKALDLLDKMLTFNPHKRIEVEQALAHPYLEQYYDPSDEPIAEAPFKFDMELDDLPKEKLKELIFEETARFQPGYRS

IC50: 3.1 nM
Compound: Cc1nn(C)cc1Nc1nccc(-c2ccn([C@H](CO)c3ccc(Cl)c(F)c3)c(=O)c2)n1

Reference: ChEMBL document CHEMBL3886521, “Serine/threonine kinase inhibitors” (2016)
